This test addresses Recombinant human cathepsin S (CatS) (Homo sapiens, UniProt P25774). Nature of the test: biochemical.

The chains behind the UniProt entries cited, without tags or fusion partners. Residues count along the entry.
UniProt P25774, 115-331: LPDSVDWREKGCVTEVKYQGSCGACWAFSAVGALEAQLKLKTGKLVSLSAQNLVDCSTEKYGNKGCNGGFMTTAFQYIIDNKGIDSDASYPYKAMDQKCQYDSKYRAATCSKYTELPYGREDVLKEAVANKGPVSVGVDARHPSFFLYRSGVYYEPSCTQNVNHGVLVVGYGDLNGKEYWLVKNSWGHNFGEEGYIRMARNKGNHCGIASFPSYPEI

Consider `COc1ccccc1C1CCN(CC(O)Cn2nc(-c3ccc(C(F)(F)F)c(SCC(=O)N4CCCC4)c3)c3c2CCNC3)CC1` (stereo not shown) [Example 443, 1-{4-[2-(Methyloxy)phenyl]piperidin-1-yl}-3-(3-{3-[(2-oxo-2-pyrrolidin-1-ylethyl)sulfanyl]-4-(trifluoromethyl)phenyl}-4,5,6,7-tetrahydro-1H-pyrazolo[4,3-c]pyridin-1-yl)propan-2-ol], for which the IC50 was 60 nM. As to `CS(=O)(=O)N1CCc2c(c(-c3ccc(C(F)(F)F)c(SCCN4CCC[C@H](O)C4)c3)nn2C[C@@H](O)CN2CCCCC2)C1` [Example 393, (3S)-1-(2-{[5-{1-[(2S)-2-Hydroxy-3-piperidin-1-ylpropyl]-5-(methylsulfonyl)-4,5,6,7-tetrahydro-1H-pyrazolo[4,3-c]pyridin-3-yl}-2-(trifluoromethyl)phenyl]sulfanyl}ethyl)piperidin-3-ol], the IC50 is 590 nM. Next, `CCOC(=O)CSc1cc(-c2nn(CC(O)CN3CCC(N4CCCC4=O)CC3)c3c2CN(S(C)(=O)=O)CC3)ccc1C(F)(F)F` (stereo not shown) [Example 63, [5-(1-{2-Hydroxy-3-[4-(2-oxo-pyrrolidin-1-yl)-piperidin-1-yl]-propyl}-5-methanesulfonyl-4,5,6,7-tetrahydro-1H-pyrazolo[4,3-c]pyridin-3-yl)-2-trifluoromethyl-phenylsulfanyl]-acetic acid ethyl ester]: 640 nM. Take `OC(CN1CCC(O)(c2cccc(C(F)(F)F)c2)CC1)Cn1nc(-c2ccc(C(F)(F)F)c(SCCN3CCCCC3)c2)c2c1CCNC2` (stereo not shown) [Example 675, 1-[2-Hydroxy-3-(3-{3-[(2-piperidin-1-ylethyl)sulfanyl]-4-(trifluoromethyl)phenyl}-4,5,6,7-tetrahydro-1H-pyrazolo[4,3-c]pyridin-1-yl)propyl]-4-[3-(trifluoromethyl)phenyl]piperidin-4-ol]: the IC50 was found to be 890 nM. The same measure for `OC(CN1CCC(F)(F)C1)Cn1nc(-c2ccc(C(F)(F)F)c(SCCN3CCC(F)(F)C3)c2)c2c1CCNC2` (stereo not shown) [Example 310, 1-(3,3-Difluoropyrrolidin-1-yl)-3-{3-[3-{[2-(3,3-difluoropyrrolidin-1-yl)ethyl]sulfanyl}-4-(trifluoromethyl)phenyl]-4,5,6,7-tetrahydro-1H-pyrazolo[4,3-c]pyridin-1-yl}propan-2-ol]: 13000 nM; for `COc1ccc(C2CCN(CC(O)Cn3nc(-c4ccc(C(F)(F)F)c(SCCN5CCCCC5)c4)c4c3CCNC4)CC2)cc1` (stereo not shown) [Example 446, 1-{4-[4-(Methyloxy)phenyl]piperidin-1-yl}-3-(3-{3-[(2-piperidin-1-ylethyl)sulfanyl]-4-(trifluoromethyl)phenyl}-4,5,6,7-tetrahydro-1H-pyrazolo[4,3-c]pyridin-1-yl)propan-2-ol]: 210 nM; for `CS(=O)(=O)N1CCc2c(c(-c3ccc(C(F)(F)F)c(SCCN4CCC(O)CC4)c3)nn2CCCN2CCC(N3CCCC3=O)CC2)C1` [Example 4, 1-{1-[3-(3-{3-[2-(4-Hydroxy-piperidin-1-yl)-ethylsulfanyl]-4-trifluoromethyl-phenyl}-5-methanesulfonyl-4,5,6,7-tetrahydro-pyrazolo[4,3-c]pyridin-1-yl)-propyl]-piperidin-4-yl}-pyrrolidin-2-one]: 340 nM.

Take `CC(=O)NC1CCN(CC(O)Cn2nc(-c3ccc(C(F)(F)F)c(SCCN4CCC(F)(F)C4)c3)c3c2CCN(S(C)(=O)=O)C3)C1` (stereo not shown) [Example 624, N-[1-(3-{3-[3-{[2-(3,3-Difluoropyrrolidin-1-yl)ethyl]sulfanyl}-4-(trifluoromethyl)phenyl]-5-(methylsulfonyl)-4,5,6,7-tetrahydro-1H-pyrazolo[4,3-c]pyridin-1-yl}-2-hydroxypropyl)pyrrolidin-3-yl]acetamide]: the IC50 stood at 290 nM. Consider `CC1(C)CCN(C[C@H](O)Cn2nc(-c3ccc(C(F)(F)F)c(SCCN4CCC(F)CC4)c3)c3c2CCNC3)CC1` [Example 311, (2S)-1-(4,4-Dimethylpiperidin-1-yl)-3-{3-[3-{[2-(4-fluoropiperidin-1-yl)ethyl]sulfanyl}-4-(trifluoromethyl)phenyl]-4,5,6,7-tetrahydro-1H-pyrazolo[4,3-c]pyridin-1-yl}propan-2-ol], for which the IC50 came to 3680 nM. Next, `CS(=O)(=O)N1CCc2c(c(-c3ccc(C(F)(F)F)c(SCCN4CCCCC4)c3)nn2CC(O)CN2CCN(c3ccccc3)CC2)C1` (stereo not shown) [Example 659, 1-[5-(Methylsulfonyl)-3-{3-[(2-piperidin-1-ylethyl)sulfanyl]-4-(trifluoromethyl)phenyl}-4,5,6,7-tetrahydro-1H-pyrazolo[4,3-c]pyridin-1-yl]-3-(4-phenylpiperazin-1-yl)propan-2-ol]: 35 nM. Next, `CC(=O)N1CCN(CCSc2cc(-c3nn(CC(O)CN4CCN(c5ccccc5)CC4)c4c3CN(S(C)(=O)=O)CC4)ccc2C(F)(F)F)CC1` (stereo not shown) [Example 826, 1-{3-[3-{[2-(4-Acetylpiperazin-1-yl)ethyl]sulfanyl}-4-(trifluoromethyl)phenyl]-5-(methylsulfonyl)-4,5,6,7-tetrahydro-1H-pyrazolo[4,3-c]pyridin-1-yl}-3-(4-phenylpiperazin-1-yl)propan-2-ol]: 140 nM. Regarding `CS(=O)(=O)N1CCc2c(c(-c3ccc(C(F)(F)F)c(SCCN4CCCCC4)c3)nn2CCCN2CCCCC2)C1` [Example 54, 5-Methanesulfonyl-3-[3-(2-piperidin-1-yl-ethylsulfanyl)-4-trifluoromethyl-phenyl]-1-(3-piperidin-1-yl-propyl)-4,5,6,7-tetrahydro-1H-pyrazolo[4,3-c]pyridine], the IC50 was 380 nM. The same measure for `CS(=O)(=O)N1CCc2c(c(-c3ccc(C(F)(F)F)c(SCCN4CCOCC4)c3)nn2CC(O)CN2CCN(C3CC3)CC2)C1` (stereo not shown) [Example 542, 1-(4-Cyclopropylpiperazin-1-yl)-3-[5-(methylsulfonyl)-3-{3-[(2-morpholin-4-ylethyl)sulfanyl]-4-(trifluoromethyl)phenyl}-4,5,6,7-tetrahydro-1H-pyrazolo[4,3-c]pyridin-1-yl]propan-2-ol]: 610 nM; for `O=C(N1CCCC1)N1CCc2c(c(-c3ccc(C(F)(F)F)c(SCCN4CCC(F)CC4)c3)nn2C[C@@H](O)CN2CCCCC2)C1` [Example 511, (2S)-1-{3-[3-{[2-(4-Fluoropiperidin-1-yl)ethyl]sulfanyl}-4-(trifluoromethyl)phenyl]-5-(pyrrolidin-1-ylcarbonyl)-4,5,6,7-tetrahydro-1H-pyrazolo[4,3-c]pyridin-1-yl}-3-piperidin-1-ylpropan-2-ol]: 1190 nM.

Turning to `CN(C)CC(=O)N1CCc2c(c(-c3ccc(C(F)(F)F)c(SCCN4CCC(F)CC4)c3)nn2CC(O)CN2CCCCC2)C1` (stereo not shown) [Example 433, 1-{5-(N,N-Dimethylglycyl)-3-[3-{[2-(4-fluoropiperidin-1-yl)ethyl]sulfanyl}-4-(trifluoromethyl)phenyl]-4,5,6,7-tetrahydro-1H-pyrazolo[4,3-c]pyridin-1-yl}-3-piperidin-1-ylpropan-2-ol], the IC50 worked out at 680 nM. Next, `CCOC(=O)NC1CCN(C(=O)CSc2cc(-c3nn(CCCN4CCC(N5CCCC5=O)CC4)c4c3CN(S(C)(=O)=O)CC4)ccc2C(F)(F)F)CC1` [Example 888, Ethyl {1-[({5-[5-(methylsulfonyl)-1-{3-[4-(2-oxopyrrolidin-1-yl)piperidin-1-yl]propyl}-4,5,6,7-tetrahydro-1H-pyrazolo[4,3-c]pyridin-3-yl]-2-(trifluoromethyl)phenyl}sulfanyl)acetyl]piperidin-4-yl}carbamate]: 60 nM; `CS(=O)(=O)N1CCc2c(c(-c3ccc(C(F)(F)F)c(SCCN4CCC(O)CC4)c3)nn2CC(O)CN2CCN(c3ccccc3)CC2)C1` (stereo not shown) [Example 712, 1-(2-{[5-{1-[2-Hydroxy-3-(4-phenylpiperazin-1-yl)propyl]-5-(methylsulfonyl)-4,5,6,7-tetrahydro-1H-pyrazolo[4,3-c]pyridin-3-yl}-2-(trifluoromethyl)phenyl]sulfanyl}ethyl)piperidin-4-ol]: 55 nM. Next, `COc1ccc(N2CCN(CC(O)Cn3nc(-c4ccc(C(F)(F)F)c(SCCN5CCC(F)(F)C5)c4)c4c3CCNC4)CC2)cc1` (stereo not shown) [Example 583, 1-{3-[3-{[2-(3,3-Difluoropyrrolidin-1-yl)ethyl]sulfanyl}-4-(trifluoromethyl)phenyl]-4,5,6,7-tetrahydro-1H-pyrazolo[4,3-c]pyridin-1-yl}-3-{4-[4-(methyloxy)phenyl]piperazin-1-yl}propan-2-ol]: 780 nM; `CS(=O)(=O)NC1CCN(CC(O)Cn2nc(-c3ccc(C(F)(F)F)c(SCCN4CCC(F)CC4)c3)c3c2CCN(S(C)(=O)=O)C3)CC1` (stereo not shown) [Example 794, N-[1-(3-{3-[3-{[2-(4-Fluoropiperidin-1-yl)ethyl]sulfanyl}-4-(trifluoromethyl)phenyl]-5-(methylsulfonyl)-4,5,6,7-tetrahydro-1H-pyrazolo[4,3-c]pyridin-1-yl}-2-hydroxypropyl)piperidin-4-yl]methanesulfonamide]: 60 nM; `CC1C(=O)NCCN1CCSc1cc(-c2nn(CC(O)CN3CCC(c4ccccn4)CC3)c3c2CN(S(C)(=O)=O)CC3)ccc1C(F)(F)F` (stereo not shown) [Example 168, 4-(2-{[5-{1-[2-Hydroxy-3-(4-pyridin-2-ylpiperidin-1-yl)propyl]-5-(methylsulfonyl)-4,5,6,7-tetrahydro-1H-pyrazolo[4,3-c]pyridin-3-yl}-2-(trifluoromethyl)phenyl]sulfanyl}ethyl)-3-methylpiperazin-2-one]: 30 nM. As for `CC1CCN(CCSc2cc(-c3nn(C[C@@H](O)CN4CCC(N5C[C@@H](O)CC5=O)CC4)c4c3CN(S(C)(=O)=O)CC4)ccc2C(F)(F)F)CC1` [Example 812, (4S)-4-Hydroxy-1-{1-[(2S)-2-hydroxy-3-{3-[3-{[2-(4-methylpiperidin-1-yl)ethyl]sulfanyl}-4-(trifluoromethyl)phenyl]-5-(methylsulfonyl)-4,5,6,7-tetrahydro-1H-pyrazolo[4,3-c]pyridin-1-yl}propyl]piperidin-4-yl}pyrrolidin-2-one], the IC50 stood at 90 nM. For the compound `NC1(C(=O)N2CCc3c(c(-c4ccc(C(F)(F)F)c(SCCN5CCC(F)CC5)c4)nn3CC(O)CN3CCCCC3)C2)CC1` (stereo not shown) [Example 428, 1-{5-[(1-Aminocyclopropyl)carbonyl]-3-[3-{[2-(4-fluoropiperidin-1-yl)ethyl]sulfanyl}-4-(trifluoromethyl)phenyl]-4,5,6,7-tetrahydro-1H-pyrazolo[4,3-c]pyridin-1-yl}-3-piperidin-1-ylpropan-2-ol], the half-inhibitory concentration (IC50) amounted to 1140 nM.

What is called IC50 is the midpoint of a concentration-inhibition curve.

For the origin of these results see US20090099157A1, “TETRAHYDRO-PYRAZOLO-PYRIDINE THIOETHER MODULATORS OF CATHEPSIN S” (priority 2007, published 2009).
